PubChem BioAssay AID422 (Emory University Molecular Libraries Screening Center, 2006)
The entries are a selection whose mix differs from that of the whole data set. The source made the active and inactive calls. No stated cut-off is given here; in the data, active means inhibition above about 30%; inactive means the rest.

The chains behind the UniProt entries cited, without tags or fusion partners.
UniProt P61981, whole entry: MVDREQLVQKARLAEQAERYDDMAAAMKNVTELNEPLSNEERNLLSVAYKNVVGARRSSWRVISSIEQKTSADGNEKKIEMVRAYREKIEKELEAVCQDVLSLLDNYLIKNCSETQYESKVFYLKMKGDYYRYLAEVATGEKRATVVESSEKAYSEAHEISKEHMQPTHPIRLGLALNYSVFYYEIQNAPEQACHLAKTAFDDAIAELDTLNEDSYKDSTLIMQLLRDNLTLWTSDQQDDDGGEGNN

Biological target: 14-3-3 protein gamma (Homo sapiens) (UniProt P61981)
Assay: modulators of 14-3-3 gamma protein binding, primary screen, biochemical, fluorescence polarization (AID 422);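 further: 0% = protein plus tracer without compound and 100% = blank with tracer alone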
Conditions: FP, 14-3-3gamma / TMR-pS259-Raf peptide binding; at 40 µM; stronger effect = higher value

Structure (SMILES)	inhibition
O=C(OC1CN2CCC1CC2)C1c2ccccc2Oc2ccccc21 (configuration not stated)	inactive: -15.1%
N#CC1(Nc2ccccc2)CCN(Cc2ccccc2)CC1	inactive: -7.39%
O=C1CCN(Cc2ccccc2)CC1	inactive: -16.9%
COc1ccc(NC2CCN(CCc3ccccc3)CC2)c(OC)c1	inactive: 5.55%
O=S1(=O)CC(Cl)C(SC2CS(=O)(=O)CC2Cl)C1 (configuration not stated)	inactive: 8.27%
N#CC1(Nc2ccccc2)CCN(CCc2ccccc2)CC1	inactive: -1.92%
N/C(=N\O)c1c(N)no[n+]1[O-]	inactive: -0.21%
CC1CN(C)C(C)CC1Nc1ccccc1 (configuration not stated)	inactive: -7.64%
c1ccc(CCN2CCC(Nc3ccccc3)CC2)cc1	inactive: -3.99%
Fc1ccccc1NC1CCN(Cc2ccccc2)CC1	inactive: 0.48%
CCC(CO)(C(=O)OC1CN2CCC1CC2)c1ccccc1 (configuration not stated)	inactive: -7.15%
CCOc1ncccc1C(=O)NCC1(N2CCOCC2)CCCCC1	inactive: -2.94%
